Assay results published in paper PMC6747225 (International Journal of Environmental Research and Public …, 2019).

Assays:
[1] = tested on: glutathione S-transferase (GST); details: liver; SER alone 5 μg·L^−1 compared to control; seven days
catalase (CAT) = details: liver; SER alone 5 μg·L^−1 compared to control; seven days

SMILES: CN[C@H]1CC[C@@H](c2ccc(Cl)c(Cl)c2)c2ccccc21 [SER, sertraline]
- GST activity [1]: not significantly changed
- CAT activity (catalase (CAT)): significant induction
